Laboratory results published in patent US12213973B2, “Bacterial nitric oxide synthase inhibitors” (Northwestern University, priority 2021, dated 2025).

Amino acid sequences for entries named in this document (tags omitted).
UniProt O34453, whole entry: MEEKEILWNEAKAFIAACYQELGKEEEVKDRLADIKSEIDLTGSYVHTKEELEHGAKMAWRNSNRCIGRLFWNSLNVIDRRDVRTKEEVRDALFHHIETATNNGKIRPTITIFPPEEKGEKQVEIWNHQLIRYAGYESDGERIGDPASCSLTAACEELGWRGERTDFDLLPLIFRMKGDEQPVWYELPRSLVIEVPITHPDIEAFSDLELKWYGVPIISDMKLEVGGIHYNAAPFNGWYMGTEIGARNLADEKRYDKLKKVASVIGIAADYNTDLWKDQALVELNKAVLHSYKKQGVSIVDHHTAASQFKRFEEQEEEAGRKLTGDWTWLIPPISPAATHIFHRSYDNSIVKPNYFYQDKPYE

Molecular target: bNOS (Bacillus subtilis, UniProt O34453)
Experiment: Thermodynamic profiling (Kd) with bNOS
Type: binding
Settings: read-out: dissociation constant (Kd) with bNOS active site, FIG. 3

Which Kd does the source give for `CNCc1cccc(OCc2ccc3ccc(N)nc3c2)c1` here?
The Kd was 5.25 µM.
